Reference: paper PMC6522010
The other results are listed elsewhere or left out.

By UniProt entry, the sequences of proteins in these tests, tags left out.
UniProt Q9NTK5, whole entry: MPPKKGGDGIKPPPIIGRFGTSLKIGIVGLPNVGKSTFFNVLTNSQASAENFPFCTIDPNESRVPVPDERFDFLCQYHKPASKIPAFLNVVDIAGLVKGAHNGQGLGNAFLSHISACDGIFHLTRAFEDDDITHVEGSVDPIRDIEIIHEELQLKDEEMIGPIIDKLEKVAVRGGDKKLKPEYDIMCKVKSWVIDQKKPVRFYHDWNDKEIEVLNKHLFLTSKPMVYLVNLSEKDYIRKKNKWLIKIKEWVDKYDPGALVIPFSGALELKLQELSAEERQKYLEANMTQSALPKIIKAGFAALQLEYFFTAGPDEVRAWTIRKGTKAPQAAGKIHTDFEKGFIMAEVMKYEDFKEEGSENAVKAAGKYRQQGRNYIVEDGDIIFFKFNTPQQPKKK

Molecular target: Obg-like ATPase 1 (UniProt Q9NTK5)
Assay: mass-spectrometry hit list; affinity purification or IP with mass spectrometry

## Nephrocystin-4, O75161
  listed as a hit: yes
